## Apparent affinities of Ab-91 variants for a coronavirus HR2 peptide

All variants were tested on one target, the spike HR2 peptide PDVDLGDISGINAS (SARS-CoV-2).

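Library AAYL51 holds single substitutions and randomly drawn double and triple substitutions in the CDRs. Affinity was read by AlphaSeq, a pooled yeast mating assay with surface-displayed partners. Binding brings cells together so that they mate, and sequencing counts the barcode pairs among the diploids. Each replicate has its own calibration line, from reference interactions of the BCL2 family. The assay was run in three technical replicates.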

Parent: Ab-91, a human scFv built as VL, a (GGGGS)3 linker, VH. Only the CDRs of the heavy chain vary.
VL: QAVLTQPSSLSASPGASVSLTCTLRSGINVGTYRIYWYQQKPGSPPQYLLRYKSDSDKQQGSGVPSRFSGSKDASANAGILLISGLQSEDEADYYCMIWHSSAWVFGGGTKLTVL
VH: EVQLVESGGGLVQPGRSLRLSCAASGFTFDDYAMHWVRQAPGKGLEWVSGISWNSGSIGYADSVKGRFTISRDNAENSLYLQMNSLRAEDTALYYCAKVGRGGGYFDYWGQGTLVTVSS

Changes read parent residue, position, new residue, counted from the first residue of the VH shown.
All variants listed here change K65 of the VH, counted from its first residue.
Kd is apparent (estimated from mating counts) and averaged on the log scale over replicates with a signal. Smaller is tighter.
An entry "nd" has no value in the source: the pair was not observed among the diploids in any replicate. This suggests poor binding but is not conclusive.
Nonspecific signal, from three strains lacking the peptide, appeared in 21% of pairings of library AAYL51, centred on 34 µM (5% of these signals below 1.8 µM); values are not corrected for it. Also given: how often the same scFv was detected with the empty control strains.

D30Y/K65H/F106C: nd (0 of 3 replicates; controls 1 of 9).
A33F/S57C/K65C: nd (0 of 3 replicates; controls 3 of 9).
D30H/K65C: 19 nM (3 of 3 replicates; controls 1 of 9).
N54D/G56N/K65A: 2.1 nM (3 of 3 replicates; controls 5 of 9).
I58W/Y60T/K65H: nd (0 of 3 replicates; controls 1 of 9).
D30Y/Y32I/K65P: nd (0 of 3 replicates; controls 4 of 9).
G50W/S63A/K65E: nd (0 of 3 replicates; controls 1 of 9).
D31I/G59Q/K65T: nd (0 of 3 replicates; controls 1 of 9).
I51H/K65E/R101P: 150 µM (2 of 3 replicates; controls 7 of 9).
D31G/K65E/F106P: 120 µM (2 of 3 replicates; controls 1 of 9).
N54K/S63H/K65G: 230 µM (2 of 3 replicates; controls 5 of 9).
M34P/K65G/Y105V: nd (0 of 3 replicates; controls 1 of 9).
S63T/K65N/Y108G: 18 nM (3 of 3 replicates; controls 3 of 9).
G26S/K65D/D107W: nd (0 of 3 replicates; controls 0 of 9).
Y60W/K65L/G104T: nd (0 of 3 replicates; controls 0 of 9).
I51S/K65E: nd (0 of 3 replicates; controls 0 of 9).
T28W/I58Q/K65M: nd (0 of 3 replicates; controls 1 of 9).
S57P/D62P/K65A: 29 µM (2 of 3 replicates; controls 2 of 9).
Y60R/K65D/G100P: 110 µM (3 of 3 replicates; controls 3 of 9).
H35R/K65I/G102P: 22 µM (1 of 3 replicates; controls 1 of 9).
I51N/K65N/G103W: nd (0 of 3 replicates; controls 0 of 9).
W53R/K65L/G102A: 1.2 µM (3 of 3 replicates; controls 3 of 9).
S57T/G59F/K65Y: nd (0 of 3 replicates; controls 0 of 9).
G26Q/V64L/K65D: nd (0 of 3 replicates; controls 1 of 9).
G59V/K65A/G103T: 95 µM (3 of 3 replicates; controls 6 of 9).
S52G/K65C: 400 µM (1 of 3 replicates; controls 2 of 9).
S57D/K65A/G104L: nd (0 of 3 replicates; controls 0 of 9).
K65M/Y108I: 5.6 nM (3 of 3 replicates; controls 1 of 9).
D30W/S52L/K65G: nd (0 of 3 replicates; controls 1 of 9).
I51T/A61R/K65I: 280 µM (1 of 3 replicates; controls 0 of 9).
G56P/Y60E/K65G: 13 µM (1 of 3 replicates; controls 2 of 9).
K65V: 560 nM (1 of 3 replicates; controls 0 of 9).
S63C/K65R: 52 µM (2 of 3 replicates; controls 3 of 9).
S55N/K65R/V99I: 51 nM (3 of 3 replicates; controls 1 of 9).
S52T/V64H/K65C: nd (0 of 3 replicates; controls 0 of 9).
I51C/K65W/D107E: nd (0 of 3 replicates; controls 0 of 9).
Y32K/G50Q/K65Y: nd (0 of 3 replicates; controls 0 of 9).

For reference, 2 entries of the list once more:

changes	apparent Kd	detected	signal with controls
A33F/S57C/K65C	nd	0 of 3	3 of 9
I58W/Y60T/K65H	nd	0 of 3	1 of 9

The measurements come from Engelhart et al. 2022 (doi:10.1038/s41597-022-01779-4) through the FLAb antibody collection.